This assay deals with MAO-A (rat brain mitochondrial MAO) (Rattus norvegicus, UniProt P21396). Kind of assay: MAO-A inhibition assay in vitro. The conditions noted are these: IC50 value MAO-A, Table 1; 1 mM serotonin substrate. In kind it is biochemical.

Chains of the proteins cited; added tags and fusions are not shown.
UniProt P21396, whole entry: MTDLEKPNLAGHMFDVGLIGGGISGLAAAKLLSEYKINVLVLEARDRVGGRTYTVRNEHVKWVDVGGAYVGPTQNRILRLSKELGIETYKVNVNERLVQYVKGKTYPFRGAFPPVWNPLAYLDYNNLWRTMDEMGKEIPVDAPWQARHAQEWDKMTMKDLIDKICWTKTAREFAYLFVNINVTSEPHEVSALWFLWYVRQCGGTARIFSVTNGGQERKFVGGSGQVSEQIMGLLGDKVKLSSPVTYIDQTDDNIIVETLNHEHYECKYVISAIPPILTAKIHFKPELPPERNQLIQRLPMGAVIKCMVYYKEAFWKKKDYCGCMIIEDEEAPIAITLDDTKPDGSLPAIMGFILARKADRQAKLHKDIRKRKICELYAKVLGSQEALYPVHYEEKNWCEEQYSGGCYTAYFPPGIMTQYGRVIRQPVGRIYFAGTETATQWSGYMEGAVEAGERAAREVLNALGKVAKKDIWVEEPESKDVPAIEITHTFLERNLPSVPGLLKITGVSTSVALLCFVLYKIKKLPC

`CC(C)NNC(=O)c1ccncc1` [Iproniazid, iproniazid, reference compound] registered an IC50 of 40 µM.

Usually IC50 stands for the midpoint of a concentration-inhibition curve. A low value points to inhibition by little substance.

For the origin of these results see article PMC3792221 (Biomolecules & Therapeutics, 2012).
